Literature values as cited in article PMC3350394, “Kinetic analysis and test-retest variability of the radioligand [^11C](R)-PK11195 binding to TSPO in the human brain - a PET study in control subjects” (EJNMMI Research, 2012).

Protein sequences, listed by entry. Tags and fused reporters are not part of them.
UniProt P30536, whole entry: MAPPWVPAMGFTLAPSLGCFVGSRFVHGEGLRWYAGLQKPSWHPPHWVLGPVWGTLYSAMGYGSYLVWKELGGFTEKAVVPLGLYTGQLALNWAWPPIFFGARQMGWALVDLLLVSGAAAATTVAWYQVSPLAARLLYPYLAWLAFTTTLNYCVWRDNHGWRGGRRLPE

Target: TSPO (Homo sapiens, UniProt P30536)
Design: from tissue; host or cells: living human brain (in vivo PET in six control subjects); method as in PMID 6667063
Details: human brain tissue in vitro; cited from earlier work

## CCC(C)N(C)C(=O)c1cc2ccccc2c(-c2ccccc2Cl)n1 (stereo not shown) [[^3 H]PK11195, 1-(2-chlorophenyl)-N-methyl-N-(1-methylpropyl)-3-isoquinoline carboxamide]
  Kd: 4.3 to 6.6 nM
